Measured values reported in patent US7094575B2 (priority 1999, dated 2006).

Assay: Mouse paw oedema after inhibitor alone
Conditions: Table 9; 100 μg alone; mean ± SD (n = 4)

Compound: CC(C)C[C@H](NC(=O)[C@@H]1CCCN1C(=O)[C@H](CC(C)C)NC(=O)CNC(=O)[C@@H]1CCCN1C(=O)[C@H](CC(C)C)NC(=O)[C@@H]1CCCN1)C(=O)N[C@@H](CO)C(=O)N[C@@H](CCCCN)C(=O)N1CCC[C@H]1C(=O)O [P-0009]
- Oedema (mg), inhibitor alone: 17 ± 6 mg
